The target in the assay is T1, Aldo-keto reductase family 1 member A1 (Rattus norvegicus) (UniProt P51635).
T1 sequence (whole entry): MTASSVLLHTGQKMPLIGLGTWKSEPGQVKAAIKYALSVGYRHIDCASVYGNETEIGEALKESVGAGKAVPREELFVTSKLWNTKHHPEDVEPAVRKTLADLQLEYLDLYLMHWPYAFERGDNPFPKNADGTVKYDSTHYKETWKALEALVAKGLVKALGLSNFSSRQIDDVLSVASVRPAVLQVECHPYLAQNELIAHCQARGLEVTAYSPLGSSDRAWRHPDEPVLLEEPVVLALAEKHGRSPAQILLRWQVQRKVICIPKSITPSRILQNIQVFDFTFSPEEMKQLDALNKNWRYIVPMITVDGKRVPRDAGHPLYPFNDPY
The experiment in a line: Percent inhibition of rat kidney Aldehyde reductase (ALR) at 1x10E-4 M.

What is called inhibition is the percentage by which the read-out fell short of the control. A lower inhibition goes with a weak effect. For `O=C(O)CN1C(=O)CN(Cc2cccc([N+](=O)[O-])c2)C1=O`, the inhibition came to 0%.

These data come from ChEMBL document CHEMBL1130317 (J Med Chem, 1997).
